The results in this text go back to patent publication US10040791B2, “Isoxazole derivative as mutant isocitrate dehydrogenase 1 inhibitor” (Daiichi Sankyo Company, Limited, priority 2014, dated 2018).

Protein sequences, listed by entry. Tags and fused reporters are not part of them.
UniProt O75874, whole entry R132H: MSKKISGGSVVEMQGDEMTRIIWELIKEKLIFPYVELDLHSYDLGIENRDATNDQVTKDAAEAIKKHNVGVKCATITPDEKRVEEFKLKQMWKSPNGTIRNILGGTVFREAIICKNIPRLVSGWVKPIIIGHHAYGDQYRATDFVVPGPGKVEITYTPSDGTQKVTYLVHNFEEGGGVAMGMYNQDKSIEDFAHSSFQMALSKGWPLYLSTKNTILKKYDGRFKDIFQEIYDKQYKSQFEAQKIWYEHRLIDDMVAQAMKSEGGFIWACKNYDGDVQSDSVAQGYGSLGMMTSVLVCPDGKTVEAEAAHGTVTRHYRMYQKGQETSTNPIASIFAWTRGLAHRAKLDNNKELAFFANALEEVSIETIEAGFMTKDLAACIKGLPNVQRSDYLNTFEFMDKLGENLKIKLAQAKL

Structures are written as SMILES.

The target of this experiment is IDH1R132H (Homo sapiens (Human), UniProt O75874, R132H). Nature of the experiment: Inhibitory activity against IDH1R132H enzyme (NADPH detection, WST-8). Format: biochemical. Conditions: 12 nM, residual NADPH detected with WST-8, read-out: Test Example 1 IDH1 R132H IC50. In general terms: Formazan colour is commonly taken as a measure of viable cells.
Usually IC50 stands for the point on the concentration scale where inhibition reaches its midpoint. As to `CC(C)c1onc(-c2c(Cl)ccc(F)c2Cl)c1C(=O)n1ccc2c(/C=C/C(=O)O)cccc21` [Example 28, (2E)-3-(1-{[3-(2,6-Dichloro-3-fluorophenyl)-5-(propan-2-yl)-1,2-oxazol-4-yl]carbonyl}-1H-indol-4-yl)prop-2-enoic acid], the half-inhibitory concentration (IC50) stood at 8 nM.
The value for `C=CC(=O)N1CC2(CC2)N(c2onc(-c3c(F)cccc3Cl)c2C(=O)n2cc(C)c3c(/C=C/C(=O)O)cccc32)C[C@H]1C` [Example 162, (2E)-3-[1-({5-[(6R)7-Acryloyl-6-methyl-4,7-diazaspiro[2.5]oct-4-yl]-3-(2-chloro-6-fluorophenyl)-1,2-oxazol-4-yl}carbonyl)-3-methyl-1H-indol-4-yl]prop-2-enoic acid] was 20 nM.
Take `Cc1cn(C(=O)c2c(-c3c(Cl)cc(Cl)cc3Cl)noc2C(C)(C)F)c2c(F)ccc(/C=C/C(=O)O)c12` [Example 50, (2E)-3-(7-Fluoro-1-{[5-(2-fluoropropan-2-yl)-3-(2,4,6-trichlorophenyl)-1,2-oxazol-4-yl]carbonyl}-3-methyl-1H-indol-4-yl)prop-2-enoic acid]: the IC50 worked out at 11 nM.
On to `Cc1cc(Cl)c(-c2noc(C(C)(C)F)c2C(=O)n2cc(C)c3c(/C=C/C(=O)O)cccc32)c(Cl)c1` [Example 56, (2E)-3-(1-{[3-(2,6-Dichloro-4-methylphenyl)-5-(2-fluoropropan-2-yl)-1,2-oxazol-4-yl]carbonyl}-3-methyl-1H-indol-4-yl)prop-2-enoic acid], for which the IC50 stood at 15 nM.
`CC(C)(C)c1onc(-c2c(F)cc(Cl)cc2Cl)c1C(=O)n1ccc2c(/C=C/C(=O)O)cccc21` [Example 35, (2E)-3-(1-{[5-(tert-Butyl)-3-(2,4-dichloro-6-fluorophenyl)-1,2-oxazol-4-yl]carbonyl}-1H-indol-4-yl)prop-2-enoic acid]: the IC50 is 31 nM.
On to `C=CC(=O)N1CCC(c2onc(-c3c(Cl)cc(Cl)cc3Cl)c2C(=O)n2ncc3c(/C=C/C(=O)O)cccc32)CC1` [Example 118], for which the IC50 amounted to 509 nM.
For `Cc1cn(C(=O)c2c(-c3c(Cl)cc(Cl)cc3Cl)noc2C(C)(C)C)c2cccc(/C=C/C(=O)O)c12` [Example 33, (2E)-3-(1-{[5-(tert-Butyl)-3-(2,4,6-trichlorophenyl)-1,2-oxazol-4-yl]carbonyl}-3-methyl-1H-indol-4-yl)prop-2-enoic acid], the IC50 was found to be 20 nM.
`CC(C)(F)c1onc(-c2c(Cl)cc(Cl)cc2Cl)c1C(=O)n1cc(F)c2c(/C=C/C(=O)O)cccc21` [Example 45, (2E)-3-(3-Fluoro-1-{[5-(2-fluoropropan-2-yl)-3-(2,4,6-trichlorophenyl)-1,2-oxazol-4-yl]carbonyl}-1H-indol-4-yl)prop-2-enoic acid]: the half-maximal inhibitory concentration (IC50) worked out at 13 nM.
In the case of `C=CC(=O)N1CCN(c2onc(-c3c(Cl)cccc3Cl)c2C(=O)n2ccc3c(/C=C/C(=O)O)cccc32)C(C)(C)C1` [Example 153, (2E)-3-(1-{[5-(4-Acryloyl-2,2-dimethylpiperazin-1-yl)-3-(2,6-dichlorophenyl)-1,2-oxazol-4-yl]carbonyl}-1H-indol-4-yl)prop-2-enoic acid] it was 88 nM; in that of `C=CC(=O)N1CCC(c2onc(-c3c(Cl)cc(Cl)cc3Cl)c2C(=O)n2cc3c4c(cccc42)/C(=C/C(=O)O)CC3)CC1` [Example 94, (2E)-[1-{[5-(1-Acryloylpiperidin-4-yl)-3-(2,4,6-trichlorophenyl)-1,2-oxazol-4-yl]carbonyl}-3,4-dihydrobenzo[cd]indol-5(1H)-ylidene]ethanoic acid], 24 nM; in that of `Cc1cn(C(=O)c2c(-c3c(Cl)cc(Cl)cc3Cl)noc2C2(C)CC2)c2cccc(/C=C/C(=O)O)c12` [Example 43, (2E)-3-(3-Methyl-1-{[5-(1-methylcyclopropyl)-3-(2,4,6-trichlorophenyl)-1,2-oxazol-4-yl]carbonyl}-1H-indol-4-yl)prop-2-enoic acid], 18 nM.
Consider `CC1(c2onc(-c3c(Cl)cc(Cl)cc3Cl)c2C(=O)n2ccc3c(/C=C/C(=O)O)cccc32)CC1` [Example 37, (2E)-3-(1-{[5-(1-Methylcyclopropyl)-3-(2,4,6-trichlorophenyl)-1,2-oxazol-4-yl]carbonyl}-1H-indol-4-yl)prop-2-enoic acid], for which the IC50 stood at 13 nM.
Turning to `C=CC(=O)N1CCC(C)(c2onc(-c3c(Cl)cc(Cl)cc3Cl)c2C(=O)n2ccc3c(/C=C/C(=O)O)cccc32)CC1` [Example 111], the IC50 came out at 69 nM.
Consider `Cn1cc(C(=O)c2c(-c3c(Cl)cc(Cl)cc3Cl)noc2C(C)(C)C)c2ccc3ccc(C(=O)O)cc3c21` [Example 167, 3-{[5-tert-Butyl-3-(2,4,6-trichlorophenyl)-1,2-oxazol-4-yl]carbonyl}-1-methyl-1H-benzo[g]indole-8-carboxylic acid], for which the 50% inhibitory concentration (IC50) was 37 nM.
Regarding `Cc1cn(C(=O)c2c(-c3c(Cl)cc(Cl)cc3Cl)noc2C2(C)COC2)c2cccc(/C=C/C(=O)O)c12` [Example 2, (2E)-3-(3-Methyl-1-{[5-(3-methyloxetan-3-yl)-3-(2,4,6-trichlorophenyl)-1,2-oxazol-4-yl]carbonyl}-1H-indol-4-yl)prop-2-enoic acid], the IC50 is 7 nM.
In the case of `C=CS(=O)(=O)N1CCC(c2onc(-c3c(Cl)cc(Cl)cc3Cl)c2C(=O)n2ccc3c(/C=C/C(=O)O)cccc32)CC1` [Example 103], the IC50 came out at 25 nM.
As to `O=C(O)/C=C/c1cccc2c1ccn2C(=O)c1c(-c2c(Cl)cccc2Cl)noc1N1CCOCC1` [Example 136, (2E)-3-(1-{[3-(2,6-Dichlorophenyl)-5-(morpholin-4-yl)-1,2-oxazol-4-yl]carbonyl}-1H-indol-4-yl)prop-2-enoic acid], the IC50 is 27 nM.
Consider `COC(C)(C)c1onc(-c2c(Cl)cccc2Cl)c1C(=O)n1ccc2c(/C=C/C(=O)O)cccc21` [Example 27, (2E)-3-(1-{[3-(2,6-Dichlorophenyl)-5-(2-methoxypropan-2-yl)-1,2-oxazol-4-yl]carbonyl}-1H-indol-4-yl)prop-2-enoic acid], for which the IC50 turned out to be 11 nM.
Consider `CN(C)c1onc(-c2c(Cl)cc(Cl)cc2Cl)c1C(=O)n1ccc2c(/C=C/C(=O)O)cccc21` [Example 138], for which the IC50 was 12 nM.
With `C=CC(=O)N(C)C1(c2onc(-c3c(Cl)cc(Cl)cc3Cl)c2C(=O)n2cc(C)c3c(/C=C/C(=O)O)cccc32)CCC1` [Example 87, (2E)-3-(1-{[5-{1-[Acryloyl(methyl)amino]cyclobutyl}-3-(2,4,6-trichlorophenyl)-1,2-oxazol-4-yl]carbonyl}-3-methyl-1H-indol-4-yl)prop-2-enoic acid], the IC50 is 34 nM.
Regarding `CC(C)(C)c1onc(-c2c(Cl)cccc2Br)c1C(=O)n1ccc2c(/C=C/C(=O)O)cccc21` [Example 39, (2E)-3-(1-{[3-(2-Bromo-6-chlorophenyl)-5-(tert-butyl)-1,2-oxazol-4-yl]carbonyl}-1H-indol-4-yl)prop-2-enoic acid], the IC50 stood at 12 nM.
For `CC(C)c1onc(-c2c(Cl)cccc2Cl)c1C(=O)n1ccc2c(/C=C/C(=O)O)cccc21` [Example 23, (2E)-3-(1-{[3-(2,6-Dichlorophenyl)-5-(propan-2-yl)-1,2-oxazol-4-yl]carbonyl}-1H-indol-4-yl)prop-2-enoic acid], the IC50 worked out at 6 nM.
Turning to `Cc1cn(C(=O)c2c(-c3c(Cl)cccc3Cl)noc2C(C)(C)F)c2cccc(/C=C/C(=O)O)c12` [Example 53, (2E)-3-(1-{[3-(2,6-Dichlorophenyl)-5-(2-fluoropropan-2-yl)-1,2-oxazol-4-yl]carbonyl}-3-methyl-1H-indol-4-yl)prop-2-enoic acid], the concentration for half-maximal inhibition (IC50) stood at 17 nM.
With `CNC1(c2onc(-c3c(Cl)cc(Cl)cc3Cl)c2C(=O)n2cc3c4c(cccc42)/C(=C/C(=O)O)CC3)CC1` [Example 86, (2E)-[1-({5-[1-(Methylamino)cyclopropyl]-3-(2,4,6-trichlorophenyl)-1,2-oxazol-4-yl}carbonyl)-3,4-dihydrobenzo[cd]indol-5(1H)-ylidene]ethanoic acid], the IC50 worked out at 8 nM.
As for `Cc1cn(C(=O)c2c(-c3c(Cl)cccc3Cl)noc2C(C)C)c2cccc(/C=C/C(=O)O)c12` [Example 25, (2E)-3-(1-{[3-(2,6-Dichlorophenyl)-5-(propan-2-yl)-1,2-oxazol-4-yl]carbonyl}-3-methyl-1H-indol-4-yl)prop-2-enoic acid], the IC50 was 30 nM.
Take `COCC(C)(C)c1onc(-c2c(Cl)cc(Cl)cc2Cl)c1C(=O)n1ccc2c(/C=C/C(=O)O)cccc21` [Example 42, (2E)-3-(1-{[5-(1-Methoxy-2-methylpropan-2-yl)-3-(2,4,6-trichlorophenyl)-1,2-oxazol-4-yl]carbonyl}-1H-indol-4-yl)prop-2-enoic acid]: the IC50 worked out at 50 nM.
Take `CNC(C)(C)c1onc(-c2c(Cl)cc(Cl)cc2Cl)c1C(=O)n1cc(C)c2c(/C=C/C(=O)O)cccc21` [Example 84, (2E)-3-[3-Methyl-1-({5-[2-(methylamino)propan-2-yl]-3-(2,4,6-trichlorophenyl)-1,2-oxazol-4-yl]carbonyl}-1H-indol-4-yl)prop-2-enoic acid]: the 50% inhibitory concentration (IC50) was 15 nM.
For the molecule `C=CS(=O)(=O)N1CCN(c2onc(-c3c(Cl)cccc3Cl)c2C(=O)n2ccc3c(/C=C/C(=O)O)cccc32)CC1` [Example 149, (2E)-3-[1-({3-(2,6-Dichlorophenyl)-5-[4-(ethenylsulfonyl)piperazin-1-yl]-1,2-oxazol-4-yl}carbonyl)-1H-indol-4-yl]prop-2-enoic acid], the IC50 was 16 nM.
With `C=CC(=O)N1CCC(c2onc(-c3c(Cl)cc(F)cc3Cl)c2C(=O)n2cc(C)c3c(/C=C/C(=O)O)cccc32)CC1` [Example 112], the concentration for half-maximal inhibition (IC50) is 31 nM.
Take `C=CC(=O)N1CCC(c2onc(-c3c(Cl)cc(Cl)cc3Cl)c2C(=O)n2cc(C)c3c(CCC(=O)O)cccc32)CC1` [Example 115]: the concentration for half-maximal inhibition (IC50) amounted to 147 nM.
On to `C=CC(=O)N1CCC(c2onc(-c3ccc(Cl)cc3Cl)c2C(=O)n2cc3c4c(cccc42)/C(=C/C(=O)O)CC3)CC1` [Example 131, (2E)-[1-{[5-(1-Acryloylpiperidin-4-yl)-3-(2,4-dichlorophenyl)-1,2-oxazol-4-yl]carbonyl}-3,4-dihydrobenzo[cd]indol-5(1H)-ylidene]ethanoic acid], for which the 50% inhibitory concentration (IC50) came out at 62 nM.
With `C=CC(=O)N1CCC(c2onc(-c3c(Cl)cc(Cl)cc3Cl)c2C(=O)n2cc3c4c(cccc42)C(CC(=O)O)CC3)CC1` (centres unmarked) [Example 125], the IC50 was 355 nM.
